Results taken from patent EP4162932A1, “ANTIVIRAL HOP CONSTITUENTS” (HHV Hallertauer Hopfenveredelungsgesellschaft mbH, priority 2021, dated 2023).

Target: SARS-CoV-2 PLpro (Severe acute respiratory syndrome coronavirus 2, UniProt P0DTD1)
Assay: PLpro kinetic inhibition assay, cleavage of AMC peptide mimicking the C-terminus of human ISG15
Type: biochemical

SMILES: COc1cc(O)c(CC=C(C)C)c(O)c1C(=O)/C=C/c1ccc(O)cc1 [XN, xanthohumol]
- inhibitory effect on PLpro (in words): lowest inhibitory effect
